From PubChem BioAssay AID761 (NMMLSC, 2007)
This is a selection; strong and weak results do not stand in their true shares. Active and inactive are the calls of the source.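 The calls were made as follows: active = percent activity GTP binding at least 20 points away from the 100% baseline, either down as inhibitor or up as activator; inconclusive = compound flagged as likely green fluorescent from well-wide comparison; inactive = the rest.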

The chains behind the UniProt entries cited, without tags or fusion partners.
UniProt P60953, whole entry: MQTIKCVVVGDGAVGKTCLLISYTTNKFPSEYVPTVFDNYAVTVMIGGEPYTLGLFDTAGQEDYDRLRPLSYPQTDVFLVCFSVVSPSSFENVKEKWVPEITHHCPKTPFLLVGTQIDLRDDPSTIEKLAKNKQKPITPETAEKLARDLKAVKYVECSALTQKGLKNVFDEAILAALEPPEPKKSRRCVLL

These compounds were tested against Cell division control protein 42 homolog (Homo sapiens) (UniProt P60953) (assay: modulators of GTP binding to wildtype Cdc42, primary screen, biochemical, multiplex bead flow cytometry, Bodipy-GTP (AID 761;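 also: median bead fluorescence of bound Bodipy-FL-GTP at 100 nM; 0% = excess unlabeled GTP control and 100% = no compound control; below 100% means less GTP binding so inhibitor and above means activator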)). Conditions: GST-Cdc42 beads, at 10 µM, actives lie on both sides.
For `O=C(OC1CN2CCC1CC2)C1c2ccccc2C=Cc2ccccc21` (centres undefined), the percent activity (GTP binding) was inactive: 99%.
`N/C(=N\O)c1c(N)no[n+]1[O-]` was tested, and the percent activity (GTP binding) was inactive: 102%.
For `COc1ccc(C(=O)NCC2(N3CCOCC3)CCCCC2)cc1OC`, the percent activity (GTP binding) was inactive: 102%.
With `c1ccc(CN2CCC(Nc3ccccc3)CC2)cc1` the percent activity (GTP binding) was inactive: 99%.
With `N#Cc1ccc(C(=O)NCC2(N3CCCCC3)CCCCC2)cc1` the percent activity (GTP binding) was inactive: 97%.
For `CN(C)c1ccc(C(=O)NCC2(N3CCCCC3)CCCCC2)cc1`, the percent activity (GTP binding) was inactive: 95%.
For `CCN1CCC(Nc2cccc(F)c2)CC1`, the percent activity (GTP binding) was inactive: 102%.
In the case of `Fc1ccccc1NC1CCN(Cc2ccccc2)CC1`, the percent activity (GTP binding) is reported as inactive: 104%.
For `COc1cc(OC)cc(C(=O)NCC2(N3CCOCC3)CCCCC2)c1`, the percent activity (GTP binding) was inactive: 96%.
In the case of `CC(C)(C)OC(=O)N1CCC(Nc2ccccc2)CC1`, the percent activity (GTP binding) is reported as inactive: 104%.
In the case of `CCOc1ncccc1C(=O)NCC1(N2CCOCC2)CCCCC1`, the percent activity (GTP binding) is reported as inactive: 100%.
`CCOC(=O)N1CCC(Nc2ccc(OC)cc2)CC1` was tested, and the percent activity (GTP binding) was inactive: 100%.
For `O=C(OC1CN2CCC1CC2)C1c2ccccc2Oc2ccccc21` (centres undefined), the percent activity (GTP binding) was inactive: 104%.
With `O=C(NCC1(N2CCOCC2)CCCCC1)c1cc2ccccc2o1` the percent activity (GTP binding) was inactive: 101%.
`COc1ccc(C(=O)NCC2(N3CCCCC3)CCCCC2)c(OC)c1OC` was tested, and the percent activity (GTP binding) was inactive: 98%.
For `COc1ccc(NC2CCN(CCc3ccccc3)CC2)c(OC)c1`, the percent activity (GTP binding) was inactive: 100%.
`CN1CCN(CCOC(=O)C(O)(c2ccccc2)c2ccccc2)CC1` was tested, and the percent activity (GTP binding) was inactive: 104%.
`COc1ccc(NC2CCN(C(=O)OC(C)(C)C)CC2)cc1` was tested, and the percent activity (GTP binding) was inactive: 97%.
In the case of `O=C(NCC1(N2CCOCC2)CCCCC1)c1cc(=O)[nH]c2ccccc12`, the percent activity (GTP binding) is reported as inactive: 99%.
For `O=C(NCC1(N2CCCCC2)CCCCC1)c1cccc([N+](=O)[O-])c1`, the percent activity (GTP binding) was inactive: 95%.
In the case of `N#CC1(Nc2ccccc2)CCN(CCc2ccccc2)CC1`, the percent activity (GTP binding) is reported as inactive: 106%.
`CN(C)c1cccc(C(=O)NCC2(N3CCCCC3)CCCCC2)c1` was tested, and the percent activity (GTP binding) was inactive: 99%.
For `COc1ccc(CN(CCCl)CCCl)cc1Cl`, the percent activity (GTP binding) was inactive: 98%.
In the case of `CC(C)c1ccc(NC2CCN(C(=O)OC(C)(C)C)CC2)cc1`, the percent activity (GTP binding) is reported as inactive: 94%.
